Source: patent US8222219B2, “Glucopyranoside compound” (Mitsubishi Tanabe Pharma Corporation, priority 2003, dated 2012)

Legend:
Sprague-Dawley (SD) rats = test: Urinary glucose excretion test in rats; type: in vivo, rat; settings: male SD rats, 30 mg/kg oral gavage, urine collected for 24 hours; daily amount of glucose excreted per individual
Procedure: 2. Urinary Glucose Excretion Test in Rats Test Compounds:
Compounds described in the above examples were used for the urinary glucose excretion test in rats.
6-week-old male Sprague-Dawley (SD) rats were housed in individual metabolic cages with free access to food and water from 2 days prior to the experiment. On the morning of the experiment, rats were administered vehicle (0.2% carboxymethyl cellulose solution containing 0.2% Tween80) or test compounds (30 mg/kg) by oral gavage at a volume of 10 ml/kg. Then, urine of the rat was collected for 24 hours, and the urine volume was measured. Subsequently, the glucose concentration in urine was quantified using the enzymatic assay kit and the daily amount of glucose excreted in urine per individual was calculated.

human SGLT2 = molecular target: T1, human SGLT2 (Homo sapiens, UniProt P31639); test: Assay for SGLT2 inhibition (14C-AMG uptake in CHOK1 cells expressing human SGLT2); type: cell-based; settings: 14C-AMG uptake 0.5 mM, 2 hours at 37° C.
T1 construct: expressed in transfected cells; host or cells: CHOK1 (CHO-K1) cells, kept under Geneticin selection
T1 sequence (P31639 1-672): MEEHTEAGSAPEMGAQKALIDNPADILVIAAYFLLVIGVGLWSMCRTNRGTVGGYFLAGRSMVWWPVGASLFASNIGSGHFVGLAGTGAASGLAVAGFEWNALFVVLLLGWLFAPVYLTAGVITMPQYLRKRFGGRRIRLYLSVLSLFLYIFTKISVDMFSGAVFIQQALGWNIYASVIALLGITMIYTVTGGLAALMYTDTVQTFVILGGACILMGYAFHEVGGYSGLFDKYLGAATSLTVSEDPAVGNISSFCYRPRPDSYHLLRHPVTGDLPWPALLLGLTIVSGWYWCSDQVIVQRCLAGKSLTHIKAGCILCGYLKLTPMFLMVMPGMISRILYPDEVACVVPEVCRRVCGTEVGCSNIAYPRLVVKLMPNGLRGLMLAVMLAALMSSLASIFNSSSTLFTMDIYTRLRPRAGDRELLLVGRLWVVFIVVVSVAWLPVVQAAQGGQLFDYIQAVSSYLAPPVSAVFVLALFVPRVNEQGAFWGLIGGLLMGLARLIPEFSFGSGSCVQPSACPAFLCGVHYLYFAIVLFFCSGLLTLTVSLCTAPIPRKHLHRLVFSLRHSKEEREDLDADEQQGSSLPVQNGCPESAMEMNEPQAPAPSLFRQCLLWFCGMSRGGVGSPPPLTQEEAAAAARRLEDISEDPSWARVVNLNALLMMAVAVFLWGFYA
Procedure: 1. Assay for SGLT2 Inhibition
Compounds described in the above examples were used for the SGLT2 inhibition assay.
CHOK1 cells expressing human SGLT2 were seeded in 24-well plates at a density of 400,000 cells/well in F-12 nutrient mixture (Ham's F-12) containing 10% fetal bovine serum, 400 μg/ml Geneticin, 50 units/ml sodium penicillin G (Gibco-BRL) and 50 μg/ml streptomycin sulfate. […] Test compounds were dissolved in DMSO. The final concentration of DMSO was 0.5%. The transport reaction was initiated by addition of 50 μl [^14C]-methyl-α-D-glucopyranoside (^14C-AMG) solution (final concentration, 0.5 mM). After incubation for 2 hours at 37° C., the uptake was stopped by aspiration of the incubation mixture, the cells were washed three times with ice-cold PBS. Then, cells were solubilized with 0.3 N NaOH and aliquots were taken for determination of radioactivity by a liquid scintillation counter. Nonspecific AMG uptake was defined as that which occurred in the presence of 100 μM of phlorizin, a specific inhibitor of sodium-dependent glucose cotransporter. Specific uptake was normalized for the protein concentrations measured by the method of Bradford.

IC50 (human SGLT2) [nM] | Structure (SMILES) | Urinary glucose (Sprague-Dawley (SD) rats)
 | OC[C@H]1O[C@@H](c2ccc(Cl)c(Cc3ccc(-c4ccccc4F)s3)c2)[C@H](O)[C@@H](O)[C@@H]1O [Example 69] | B (2000 mg>B≧1000 mg)
 | OC[C@H]1O[C@@H](c2ccc(Cl)c(Cc3ccc(-c4ccc(F)cc4)s3)c2)[C@H](O)[C@@H](O)[C@@H]1O [Example 70] | A (A≧2000 mg)
 | Cc1ccc([C@@H]2O[C@H](CO)[C@@H](O)[C@H](O)[C@H]2O)cc1Cc1ccc(-c2cccc(F)c2)s1 [Example 83] | A (A≧2000 mg)
 | Cc1ccc([C@@H]2O[C@H](CO)[C@@H](O)[C@H](O)[C@H]2O)cc1Cc1ccc(-c2ccc(F)cc2)s1 [Example 84] | A (A≧2000 mg)
 | OC[C@H]1O[C@@H](c2ccc(Cl)c(Cc3ccc(-c4cccc(Cl)c4)s3)c2)[C@H](O)[C@@H](O)[C@@H]1O [Example 88] | B (2000 mg>B≧1000 mg)
 | Cc1ccc([C@@H]2O[C@H](CO)[C@@H](O)[C@H](O)[C@H]2O)cc1Cc1ccc(-c2cccc(Cl)c2)s1 [Example 89] | B (2000 mg>B≧1000 mg)
 | OC[C@H]1O[C@@H](c2ccc(Cl)c(Cc3ccc(-c4cncs4)s3)c2)[C@H](O)[C@@H](O)[C@@H]1O [Example 204] | A (A≧2000 mg)
 | OC[C@H]1O[C@@H](c2ccc(Cl)c(Cc3ccc(-c4cscn4)s3)c2)[C@H](O)[C@@H](O)[C@@H]1O [Example 207] | A (A≧2000 mg)
 | COc1cccc(-c2ccc(Cc3cc([C@@H]4O[C@H](CO)[C@@H](O)[C@H](O)[C@H]4O)ccc3C)s2)n1 [Example 208] | A (A≧2000 mg)
 | COc1ccc(-c2ccc(Cc3cc([C@@H]4O[C@H](CO)[C@@H](O)[C@H](O)[C@H]4O)ccc3C)s2)cn1 [Example 209] | B (2000 mg>B≧1000 mg)
 | Cc1ccc([C@@H]2O[C@H](CO)[C@@H](O)[C@H](O)[C@H]2O)cc1Cc1ccc(-c2cscn2)s1 [Example 210] | B (2000 mg>B≧1000 mg)
1.5 | OC[C@H]1O[C@@H](c2ccc(Cl)c(Cc3ccc(-n4cccn4)s3)c2)[C@H](O)[C@@H](O)[C@@H]1O [Example 214] | B (2000 mg>B≧1000 mg)
 | OC[C@H]1O[C@@H](c2ccc(Cl)c(Cc3ccc(-c4ccnc(F)c4)s3)c2)[C@H](O)[C@@H](O)[C@@H]1O [Example 216] | A (A≧2000 mg)
 | Cc1ccc([C@@H]2O[C@H](CO)[C@@H](O)[C@H](O)[C@H]2O)cc1Cc1ccc(-c2ccnc(F)c2)s1 [Example 217] | B (2000 mg>B≧1000 mg)
2.4 | Cc1ccc([C@@H]2O[C@H](CO)[C@@H](O)[C@H](O)[C@H]2O)cc1Cc1ccc(-c2cncs2)s1 [Example 218] | 
 | Cc1ccc([C@@H]2O[C@H](CO)[C@@H](O)[C@H](O)[C@H]2O)cc1Cc1ccc(-n2cccn2)s1 [Example 227] | B (2000 mg>B≧1000 mg)
 | CCOc1ccc2cc(Cc3cc([C@@H]4O[C@H](CO)[C@@H](O)[C@H](O)[C@H]4O)ccc3C)sc2c1 [Example 228] | B (2000 mg>B≧1000 mg)
 | COc1ccc2sc(Cc3cc([C@@H]4O[C@H](CO)[C@@H](O)[C@H](O)[C@H]4O)ccc3C)cc2c1 [Example 229] | B (2000 mg>B≧1000 mg)
 | Cc1ccc([C@@H]2O[C@H](CO)[C@@H](O)[C@H](O)[C@H]2O)cc1Cc1cc2cc(OCCF)ccc2s1 [Example 230] | A (A≧2000 mg)
 | CCOc1ccc2sc(Cc3cc([C@@H]4O[C@H](CO)[C@@H](O)[C@H](O)[C@H]4O)ccc3C)cc2c1 [Example 231] | B (2000 mg>B≧1000 mg)
 | CCOc1ccc(-c2ccc(Cc3cc([C@@H]4O[C@H](CO)[C@@H](O)[C@H](O)[C@H]4O)ccc3C)s2)cc1 [Example 232] | B (2000 mg>B≧1000 mg)
 | Cc1ccc([C@@H]2O[C@H](CO)[C@@H](O)[C@H](O)[C@H]2O)cc1Cc1cc2ccc(OCCF)cc2s1 [Example 235] | A (A≧2000 mg)
 | Cc1ccc([C@@H]2O[C@H](CO)[C@@H](O)[C@H](O)[C@H]2O)cc1Cc1ccc(-c2ccc(OC(F)F)cc2)s1 [Example 237] | B (2000 mg>B≧1000 mg)
 | COc1ccc2cc(Cc3cc([C@@H]4O[C@H](CO)[C@@H](O)[C@H](O)[C@H]4O)ccc3C)sc2c1 [Example 238] | A (A≧2000 mg)
 | OC[C@H]1O[C@@H](c2ccc(F)c(Cc3ccc(-c4cccc(F)n4)s3)c2)[C@H](O)[C@@H](O)[C@@H]1O [Example 248] | B (2000 mg>B≧1000 mg)
 | Cc1nc(-c2ccc(Cc3cc([C@@H]4O[C@H](CO)[C@@H](O)[C@H](O)[C@H]4O)ccc3Cl)s2)cs1 [Example 252] | B (2000 mg>B≧1000 mg)
